Data set [1] has as its target T1, DOR (Homo sapiens, UniProt P41143).
T1 construct: expressed in transfected cells; host or cells: CHO
The data set can be described thus: DOR [35S]GTPγS binding assay. The data set is classed as biochemical. A general note: GTPγS is a poorly hydrolysed GTP analogue; its binding reports G protein activation.

Data set [2] addresses T2, KOR (Mus musculus, UniProt P33534). Description: KOR [35S]GTPγS binding assay. On the set-up: expressed in transfected cells; host or cells: CHO. It counts as biochemical.
The target in another data set is MOR (Mus musculus, UniProt P42866). Description: MOR [35S]GTPγS functional assay (MOR-CHO membranes). It counts as biochemical. Further details: expressed in transfected cells; host or cells: CHO. The conditions noted are these: read-out: MOR [35S]GTPγS Binding % Emax of DAMGO, Example 1 compounds; relative to 3 μM DAMGO.
The subject of another data set is male Swiss Webster mice. Description: warm-water tail immersion assay, antagonism of morphine's antinociception. Particulars: mouse, in vivo.
For data set [3], the target named is T2, KOR. The data set can be described thus: competitive radioligand binding assay, KOR ([3H]diprenorphine, CHO cell membranes). On the set-up: expressed in transfected cells; host or cells: CHO.
Data set [4] concerns the target T1, DOR. Description: competitive radioligand binding assay, DOR ([3H]diprenorphine, CHO cell membranes).
A short description of another data set: Caco-2 permeability. The conditions noted are these: human, Caco-2, pH 7.4.
Setting [5] is: Example 1 compounds, ratio of Ki.

Where a name gives a salt, the structure may show the parent alone. Read-outs that look alike come from different tables or passages of the source.

By EC50 is commonly meant the concentration giving half of the maximal effect. The term Emax denotes the size of the effect at its maximum, as opposed to the concentration needed. As usually defined, the efflux ratio is a quotient of directional permeabilities that is used to spot active efflux.

Regarding `O=C(N[C@H]1CCC2(O)C3Cc4ccc(O)c5c4[C@@]2(CCN3CC2CC2)[C@H]1O5)c1ccc[nH]1` (stereo partly drawn) [Example 1 compound 1, 17-Cyclopropylmethyl-3,14β-dihydroxy-4,5α-epoxy-6a-[(2′-pyrrolyl)carboxamido]morphinan hydrochloride], in the data set “AMES testing”, the AMES testing result is listed as “No toxicity shown”. The EC50 on DOR [1] turned out to be 26.9 ± 3.23 nM; at KOR [2], 14.8 ± 0.99 nM.

Consider `O=C(N[C@H]1CC[C@@]2(O)[C@H]3Cc4ccc(O)c5c4[C@@]2(CCN3CC2CC2)[C@H]1O5)c1cccs1` [Example 1 compound 25, 17-Cyclopropylmethyl-3,14β-dihydroxy-4,5α-epoxy-6α-(2′-thienylcarboxamido)morphinan hydrochloride], for which, on MOR, the Emax lay within 20 to 30%.

Take `O=C(N[C@@H]1CC[C@@]2(O)[C@H]3Cc4ccc(O)c5c4[C@@]2(CCN3CC2CC2)[C@H]1O5)c1cccs1` [Example 1 compound 26, 17-Cyclopropylmethyl-3,14β-dihydroxy-4,5α-epoxy-6β-(2′-thienylcarboxamido)morphinan hydrochloride]: in the data set with male Swiss Webster mice, the “AD50 mg/kg (95% CL) to antagonize morphine mediated antinociception” value is given as 1.62 mg/kg.

Turning to `O=C(CCc1cccs1)N[C@H]1CC[C@@]2(O)[C@H]3Cc4ccc(O)c5c4[C@@]2(CCN3CC2CC2)[C@H]1O5` [Example 1 compound 29, 17-Cyclopropylmethyl-3,14β-dihydroxy-4,5α-epoxy-6α-[3′-(thiophen-2″yl)propanamido]morphinan hydrochloride], on KOR [3] (setting [5]), the “Selectivity κ/μ” value is reported as 4. The Emax on MOR was 30 to 50%. In addition, the “Selectivity δ/μ” value on DOR [4] (setting [5]) came out at 7.

As for `O=C(N[C@H]1CC[C@@]2(O)[C@H]3Cc4ccc(O)c5c4[C@@]2(CCN3CC2CC2)[C@H]1O5)c1ccsc1` [Example 1 compound 31, 17-Cyclopropylmethyl-3,14β-dihydroxy-4,5α-epoxy-6α-(3′-thienylcarboxamido)morphinan hydrochloride], the Emax on MOR is 30 to 50%. Besides, the “Tail flick assay (dose response) AD50” value with male Swiss Webster mice is recorded as “The AD50 of NAH was determined as 1.51 (1.08- mg/kg”. The efflux ratio at 1 h, 10 μM in “Caco-2 permeability” was 4.

With `O=C(N[C@@H]1CC[C@@]2(O)[C@H]3Cc4ccc(O)c5c4[C@@]2(CCN3CC2CC2)[C@H]1O5)c1ccsc1` [Example 1 compound 32, 17-Cyclopropylmethyl-3,14β-dihydroxy-4,5α-epoxy-6β-(3′-thienylcarboxamido)morphinan hydrochloride], the “AD50 mg/kg (95% CL) to antagonize morphine mediated antinociception” value in the data set with male Swiss Webster mice is 6.81 mg/kg.

For `O=C(Cc1ccsc1)N[C@H]1CC[C@@]2(O)[C@H]3Cc4ccc(O)c5c4[C@@]2(CCN3CC2CC2)[C@H]1O5` [Example 1 compound 33, 17-Cyclopropylmethyl-3,14β-dihydroxy-4,5α-epoxy-6α-(3′-thienylacetamido)morphinan hydrochloride], the “Selectivity κ/μ” value on KOR [3] (setting [5]) worked out at 3. The Emax at MOR is 20 to 30%. For the same molecule, the “Selectivity δ/μ” value on DOR [4] (setting [5]) is reported as 173.

In the case of `O=C(Cc1ccsc1)N[C@@H]1CC[C@@]2(O)[C@H]3Cc4ccc(O)c5c4[C@@]2(CCN3CC2CC2)[C@H]1O5` [Example 1 compound 34, 17-Cyclopropylmethyl-3,14β-dihydroxy-4,5α-epoxy-6β-(3′-thienylacetamido)morphinan hydrochloride], on KOR [3], the “Selectivity κ/μ” value was found to be 6. The “Selectivity δ/μ” value at DOR [4] is reported as 176.

For the origin of these results see patent US20250195504A1, “NALTREXAMINE DERIVATIVES BEARING 5-MEMBER HETEROCYCLIC RING SYSTEMS AND OPIOID RECEPTOR MODULATORS” (VIRGINIA COMMONWEALTH UNIVERSITY, priority 2022, published 2025).
